Where two headings read alike, the source gives them in different places.
Experiments:
Ba/F3-EGFR-insSVD cells = experiment: Proliferation assay in BA/F3 (ins SVD) cells (Cell Titer-Glo); assay type: cell-based; conditions: read-out: BA/F3 (insSVD) IC50
Ba/F3-EGFR-WT cells = experiment: Proliferation assay in BA/F3 (wild type) cells (Cell Titer-Glo); assay type: cell-based; conditions: read-out: BA/F3 (wild type) IC50
[1] = molecular target: EGFR ins SVD (insertion of SVD between D770 and N771) (Homo sapiens, UniProt P00533, INS767SVD); experiment: Exon 20-Mutant-EGFR(D770_N771insSVD) kinase assay (TR-FRET); assay type: biochemical; conditions: read-out: mutEGFR (D770_N771insSVD) kinase assay IC50; Table 9
[2] = Table 11, prior art examples of WO2016/120196

Chains of the proteins cited; added tags and fusions are not shown. A line that says so, or that is headed by a name, gives the form on record, which may keep a tag or linker.
UniProt P00533, with tags, fused parts or gaps INS767SVD limits assumed: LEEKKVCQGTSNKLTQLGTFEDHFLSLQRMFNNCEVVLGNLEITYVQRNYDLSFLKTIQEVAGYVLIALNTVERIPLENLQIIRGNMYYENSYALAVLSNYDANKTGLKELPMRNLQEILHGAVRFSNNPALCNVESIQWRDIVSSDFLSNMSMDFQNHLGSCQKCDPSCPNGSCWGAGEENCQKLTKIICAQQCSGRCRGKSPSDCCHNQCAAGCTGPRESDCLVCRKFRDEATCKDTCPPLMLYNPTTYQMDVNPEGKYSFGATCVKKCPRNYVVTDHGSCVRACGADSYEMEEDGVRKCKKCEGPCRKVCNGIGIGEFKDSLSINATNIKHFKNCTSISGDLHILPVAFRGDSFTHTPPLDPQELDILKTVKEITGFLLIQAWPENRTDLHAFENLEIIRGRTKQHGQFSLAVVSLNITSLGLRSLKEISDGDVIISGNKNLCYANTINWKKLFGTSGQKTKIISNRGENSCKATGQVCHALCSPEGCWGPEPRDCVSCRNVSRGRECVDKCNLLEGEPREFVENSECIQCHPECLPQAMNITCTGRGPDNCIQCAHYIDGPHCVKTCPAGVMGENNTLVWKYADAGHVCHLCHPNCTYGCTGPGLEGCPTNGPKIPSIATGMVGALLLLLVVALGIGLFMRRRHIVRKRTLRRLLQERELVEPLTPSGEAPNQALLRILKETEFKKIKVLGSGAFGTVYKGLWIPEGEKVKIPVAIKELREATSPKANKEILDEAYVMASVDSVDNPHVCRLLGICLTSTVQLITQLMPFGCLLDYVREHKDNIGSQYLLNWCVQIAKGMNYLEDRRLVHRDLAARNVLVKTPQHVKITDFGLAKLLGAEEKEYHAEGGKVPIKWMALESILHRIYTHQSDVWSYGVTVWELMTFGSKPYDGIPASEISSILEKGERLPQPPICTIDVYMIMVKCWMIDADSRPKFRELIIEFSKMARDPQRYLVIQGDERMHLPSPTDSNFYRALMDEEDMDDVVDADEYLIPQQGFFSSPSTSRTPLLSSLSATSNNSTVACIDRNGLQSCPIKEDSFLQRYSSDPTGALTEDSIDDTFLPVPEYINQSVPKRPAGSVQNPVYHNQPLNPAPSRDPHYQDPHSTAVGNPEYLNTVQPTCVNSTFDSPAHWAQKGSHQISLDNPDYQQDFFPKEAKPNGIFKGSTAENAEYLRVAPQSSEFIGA

O=C1NCCc2[nH]c(-c3ccncc3OCC(F)F)c(Nc3cccc(F)c3)c21
IC50 (Ba/F3-EGFR-insSVD cells; [2]): > 2000 nM | IC50 (Ba/F3-EGFR-WT cells; [2]): 5020 nM

O=C1NCCc2[nH]c(-c3ccncc3OCC3CC3)c(Nc3ccc(F)cc3)c21
IC50 (Ba/F3-EGFR-insSVD cells; [2]): > 2000 nM | IC50 (Ba/F3-EGFR-WT cells; [2]): 5910 nM

Cc1c(F)cccc1Nc1c(-c2ccncc2OCC2CCOC2)[nH]c2c1C(=O)NCC2 (stereo not drawn)
IC50 [1]: 0.522 nM | IC50 (Ba/F3-EGFR-insSVD cells; Table 10, proliferation, plated without EGF, 48 h): 143 nM | IC50 (Ba/F3-EGFR-WT cells; Table 10, proliferation, plated with 10 ng/mL EGF, 48 h): 2260 nM

COCCOc1cnccc1-c1[nH]c2c(c1Nc1ccc(F)c(F)c1)C(=O)NCC2
IC50 (Ba/F3-EGFR-insSVD cells; [2]): > 2000 nM | IC50 (Ba/F3-EGFR-WT cells; [2]): 4040 nM
